From ChEMBL document CHEMBL6109067, “Isolation, synthesis and structure-activity relationships of gallotannin derivatives as cathepsin C inhibitor” (Bioorg Med Chem Lett, 2025) come the findings set out here.

The assay has as its target T1, Neutrophil elastase (Homo sapiens, UniProt P08246).
T1 sequence (P08246 whole entry): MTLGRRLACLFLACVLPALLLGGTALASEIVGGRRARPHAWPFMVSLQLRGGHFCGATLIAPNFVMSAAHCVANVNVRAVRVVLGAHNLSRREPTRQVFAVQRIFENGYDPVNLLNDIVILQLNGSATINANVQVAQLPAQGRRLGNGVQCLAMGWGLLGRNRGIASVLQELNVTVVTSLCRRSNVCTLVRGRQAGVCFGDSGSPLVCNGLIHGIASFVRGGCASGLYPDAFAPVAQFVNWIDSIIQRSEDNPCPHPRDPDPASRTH
The experiment in a line: Inhibition of human neutrophil elastase (unknown origin).

On to `CC(C)(C)C(=O)Oc1ccc(S(=O)(=O)Nc2ccccc2C(=O)NCC(=O)O)cc1`, for which 54.1 µM corresponded to half-maximal inhibition (IC50).
